The text below walks through data of paper PMC7337493 (The Journal of Cell Biology, 2020).

The chains behind the UniProt entries cited, without tags or fusion partners. Where a name states a change or a piece, a line headed by the entry shows the natural chain unless it says otherwise.
UniProt O75385: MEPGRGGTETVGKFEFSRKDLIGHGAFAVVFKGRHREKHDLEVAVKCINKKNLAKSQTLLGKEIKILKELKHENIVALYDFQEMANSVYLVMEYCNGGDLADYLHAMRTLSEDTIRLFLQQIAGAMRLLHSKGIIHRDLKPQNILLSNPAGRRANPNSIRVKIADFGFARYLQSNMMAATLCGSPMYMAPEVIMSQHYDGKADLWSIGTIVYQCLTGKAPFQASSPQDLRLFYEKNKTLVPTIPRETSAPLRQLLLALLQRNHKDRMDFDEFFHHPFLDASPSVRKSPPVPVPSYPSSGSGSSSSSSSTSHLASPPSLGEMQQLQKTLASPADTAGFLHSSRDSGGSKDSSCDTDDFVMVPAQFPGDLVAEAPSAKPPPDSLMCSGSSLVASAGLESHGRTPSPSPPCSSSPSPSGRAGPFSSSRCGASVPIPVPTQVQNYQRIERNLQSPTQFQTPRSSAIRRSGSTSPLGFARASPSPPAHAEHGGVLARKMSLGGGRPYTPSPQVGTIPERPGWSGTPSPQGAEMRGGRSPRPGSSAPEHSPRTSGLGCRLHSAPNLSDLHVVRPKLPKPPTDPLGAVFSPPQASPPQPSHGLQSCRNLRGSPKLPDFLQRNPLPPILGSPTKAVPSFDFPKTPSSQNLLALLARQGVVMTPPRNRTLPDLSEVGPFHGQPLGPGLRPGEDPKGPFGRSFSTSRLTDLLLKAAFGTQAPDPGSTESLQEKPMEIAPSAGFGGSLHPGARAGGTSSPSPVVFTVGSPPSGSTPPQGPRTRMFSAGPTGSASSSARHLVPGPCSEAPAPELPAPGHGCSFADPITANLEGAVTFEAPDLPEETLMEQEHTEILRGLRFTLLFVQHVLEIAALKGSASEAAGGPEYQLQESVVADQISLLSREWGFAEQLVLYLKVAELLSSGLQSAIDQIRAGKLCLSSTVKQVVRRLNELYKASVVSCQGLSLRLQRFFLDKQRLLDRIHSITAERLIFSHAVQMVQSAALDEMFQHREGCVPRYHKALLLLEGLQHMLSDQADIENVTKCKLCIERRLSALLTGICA

Common to all, as to conditions: both partners purified
For test [1], the target named is T1, MBP-ULK1:Strep-ATG13:Strep-ATG101 complex (human, UniProt O75385 1-1050; O75143 1-517; Q9BSB4 1-218).
T1 construct: ULK1, human; ATG13, human; ATG101, human; also called ternary ULK1:ATG13:ATG101 complex; ULK1:ATG13:ATG101; not shown: MBP, N-terminal, kept; TwinStrep-Flag (printed as Strep), N-terminal, kept; copies: + +
Kind of test: pull-down; Strep-Tactin resin loaded with MBP-ULK1:Strep-ATG13:Strep-ATG101; FIP200–MBP protein added at 200 nM, 4°C, gentle shaking; SDS-PAGE, Coomassie (Fig. 1 B).

Test [2] has as its target T2, Strep-ATG13:Strep-ATG101 complex (human, UniProt O75143 1-517; Q9BSB4 1-218).
T2 construct: ATG13, human; ATG101, human; also called ATG13:ATG101; ATG13:ATG101 subcomplex; source: HEK 293-GnT1 suspension cells, transfected; not shown: TwinStrep-Flag (printed as Strep), N-terminal, kept; copies: 1 + 1
T2 sequence (looked up) 1: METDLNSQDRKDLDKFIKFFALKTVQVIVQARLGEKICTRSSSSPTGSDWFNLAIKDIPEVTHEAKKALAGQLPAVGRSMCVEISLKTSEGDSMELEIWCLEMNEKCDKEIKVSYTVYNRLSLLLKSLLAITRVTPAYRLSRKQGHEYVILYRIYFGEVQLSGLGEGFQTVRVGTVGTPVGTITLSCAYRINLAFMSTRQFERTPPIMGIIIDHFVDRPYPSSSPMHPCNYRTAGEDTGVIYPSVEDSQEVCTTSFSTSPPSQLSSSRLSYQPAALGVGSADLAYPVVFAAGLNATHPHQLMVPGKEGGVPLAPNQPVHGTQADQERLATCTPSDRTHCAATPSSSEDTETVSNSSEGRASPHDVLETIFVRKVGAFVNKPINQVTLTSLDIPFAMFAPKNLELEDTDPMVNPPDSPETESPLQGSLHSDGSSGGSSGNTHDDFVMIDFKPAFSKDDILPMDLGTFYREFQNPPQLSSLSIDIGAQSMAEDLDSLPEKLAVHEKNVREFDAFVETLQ
T2 sequence (looked up) 2: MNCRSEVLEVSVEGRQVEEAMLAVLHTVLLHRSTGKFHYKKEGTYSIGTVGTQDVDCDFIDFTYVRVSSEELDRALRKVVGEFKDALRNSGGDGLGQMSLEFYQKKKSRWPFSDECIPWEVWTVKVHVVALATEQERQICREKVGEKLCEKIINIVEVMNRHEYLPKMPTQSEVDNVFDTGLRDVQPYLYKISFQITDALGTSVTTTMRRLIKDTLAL
Kind of test: pull-down; GSH resin loaded with GST-FIP200NTD; MBP-ULK1 or Strep-ATG13:Strep-ATG101 added alone; 200 nM; 20 mM Hepes pH 8.0, 200 mM NaCl, 1 mM TCEP, 5 mM desthiobiotin, 1% Triton-X-100; SDS-PAGE, Coomassie (Fig. 2 A).

Test [3] deals with T3, ATG13-MBP:ATG101 complex (human, UniProt O75143 1-517; Q9BSB4 1-218).
T3 construct: ATG13, human; ATG101, human; source: HEK 293-GnT1 suspension cells, transfected, purified in complex with FIP200NTD and ULK1 EAT–MBP; not shown: MBP, C-terminal, kept
T3 sequence (looked up) 1: T2 sequence (looked up) 1
T3 sequence (looked up) 2: T2 sequence (looked up) 2
Kind of test: negative stain EM; purified samples diluted to ~50–200 nM, uranyl acetate stain, 2D classification; MBP tags used to mark positions.

Test [4] addresses T2, Strep-ATG13:Strep-ATG101 complex. Described as above.
Test [5] deals with T4, MBP-ATG13:MBP-ATG101 complex (human, UniProt O75143 1-517; Q9BSB4 1-218).
T4 construct: ATG13, human; ATG101, human; also called dual MBP-tagged HORMA domains; source: HEK 293-GnT1 suspension cells, transfected, purified in complex with FIP200NTD and ULK1 EAT; not shown: MBP, N-terminal, kept
T4 sequence (looked up) 1: T2 sequence (looked up) 1
T4 sequence (looked up) 2: T2 sequence (looked up) 2
The description is as above.

B1: FIP200NTD–MBP (domain or fragment, human, UniProt Q8TDY2 1-640, looked up)
chain: MKLYVFLVNTGTTLTFDTELTVQTVADLKHAIQSKYKIAIQHQVLVVNGGECMAADRRVCTYSAGTDTNPIFLFNKEMILCDRPPAIPKTTFSTENDMEIKVEESLMMPAVFHTVASRTQLALEMYEVAKKLCSFCEGLVHDEHLQHQGWAAIMANLEDCSNSYQKLLFKFESIYSNYLQSIEDIKLKLTHLGTAVSVMAKIPLLECLTRHSYRECLGRLDSLPEHEDSEKAEMKRSTELVLSPDMPRTTNESLLTSFPKSVEHVSPDTADAESGKEIRESCQSTVHQQDETTIDTKDGDLPFFNVSLLDWINVQDRPNDVESLVRKCFDSMSRLDPRIIRPFIAECRQTIAKLDNQNMKAIKGLEDRLYALDQMIASCGRLVNEQKELAQGFLANQKRAENLKDASVLPDLCLSHANQLMIMLQNHRKLLDIKQKCTTAKQELANNLHVRLKWCCFVMLHADQDGEKLQALLRLVIELLERVKIVEALSTVPQMYCLAVVEVVRRKMFIKHYREWAGALVKDGKRLYEAEKSKRESFGKLFRKSFLRNRLFRGLDSWPPSFCTQKPRKFDCELPDISLKDLQFLQSFCPSEVQPFLRVPLLCDFEPLHQHVLALHNLVKAAQSLDEMSQTITDLLSEQK
notes: FIP200 (RB1CC1), human, N-terminal domain, residues 1-640 of 1,594; also called FIP200(N-640)–MBP; FIP200-MBP; not shown: GST, N-terminal, cleaved; MBP, C-terminal, kept
Consider B1, for which the binding result in test [1] is given as “binds”.

B2: GST-FIP200NTD (domain or fragment, human, UniProt Q8TDY2 1-640, looked up)
chain: B1 chain
notes: FIP200 (RB1CC1), human, N-terminal domain, residues 1-640; also called WT FIP200NTD; source: HEK 293-GnT1 suspension cells, transfected; not shown: GST, N-terminal, kept
With B2, in test [2], the binding result is on record as “binds”.

B3: FIP200NTD (domain or fragment, human, UniProt Q8TDY2 1-640, looked up)
chain: B1 chain
notes: FIP200 (RB1CC1), human, N-terminal domain, residues 1-640 of 1,594; the form printed without a tag in NSEM, MALS, HDX-MS and cryo-EM samples; also called FIP200 N-terminal domain; untagged FIP200NTD
Regarding B3, the binding result in test [3], in test [4] and in test [5] was “binds” in each case.
